# Laboratory results reported in PubChem BioAssay AID624354 (Sanford-Burnham Center for Chemical Genomics, 2012).
# Only a part is listed here, and it is no random draw. Active and inactive are the calls of the source.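 The calls were made as follows: active = compounds causing at least 50% loss of cell viability in the single-dose screen, relative to plate controls; inactive = the rest.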
# Experiment: viability loss with TRAIL in NB7+C8 cells, primary screen, TRAIL sensitizer project, cell-based, ATPlite luminescence (AID 624354)
# Conditions: at 10 µM, hits give high values
row,SMILES,"inhibition (viability loss, TRAIL sensitization)"
1,Cc1cccc(C)c1OP(C)(N)=O (stereo not drawn),inactive: -0.921%
2,CC(C)(C)c1ccc(OP(C)(=O)Nc2ccc(SC(F)(F)F)cc2)cc1 (stereo not drawn),inactive: -6.85%
3,O=[N+]([O-])c1ccc2c(c1)C=Nc1ccccc1O2,inactive: 4.43%
4,O=[N+]([O-])c1cc([N+](=O)[O-])c(Nc2cccnc2)c([N+](=O)[O-])c1,inactive: 15.3%
5,COc1ccc(OP(C)(=O)Nc2cccc(F)c2)cc1 (stereo not drawn),inactive: 4.34%
6,COc1ccccc1OP(C)(=O)Nc1cc(Cl)ccc1C (stereo not drawn),inactive: -7.23%
7,Cc1cc(C)cc(OP(C)(N)=O)c1 (stereo not drawn),inactive: 0.738%
8,CCOC(=O)c1ccc(NP(C)(=O)Oc2ccccc2)cc1 (stereo not drawn),inactive: 9.65%
9,Cc1ccc(NP(C)(=O)Oc2ccccc2)c(C)c1 (stereo not drawn),inactive: -13.7%
10,COc1ccccc1OP(C)(=O)Nc1ccc(C)cc1 (stereo not drawn),inactive: 4.7%
11,CCN(CC)CCCOC(=O)C(O)(c1ccccc1)c1ccccc1,inactive: 3.87%
12,COc1ccccc1-c1ccccn1.O=[N+]([O-])c1cc([N+](=O)[O-])c(O)c([N+](=O)[O-])c1,inactive: -8.34%
13,Cc1cc(C)cc(OP(C)(=O)Nc2ccc(SC(F)(F)F)cc2)c1 (stereo not drawn),inactive: 0.56%
14,CP(=O)(NC(=O)Nc1ccccc1)Oc1ccccc1 (stereo not drawn),inactive: 8.71%
15,CCc1ccc(OP(C)(=O)N2CCN(c3ccc([N+](=O)[O-])cc3)CC2)cc1 (stereo not drawn),inactive: 8.46%
16,CP(=O)(Oc1ccccc1)OC(c1ccccc1)C(F)(F)F (stereo not drawn),inactive: 1.27%
17,Cc1cccc(C)c1OP(C)(=O)Nc1ccc(SC(F)(F)F)cc1 (stereo not drawn),inactive: 0.25%
18,Cc1ccc(Nc2c([N+](=O)[O-])cc([N+](=O)[O-])cc2[N+](=O)[O-])cc1,inactive: 24.7%
19,CP(=O)(Nc1ccc(SC(F)(F)F)cc1)Oc1ccc(Cl)cc1 (stereo not drawn),inactive: -5.5%
20,CP(=O)(Nc1ccccn1)Oc1ccc(Cl)cc1 (stereo not drawn),inactive: -31%
21,CCOP(C)(=S)SCC(=O)NC(C)C(=O)O (stereo not drawn),inactive: -0.607%
22,CCOC(=O)c1ccc(NP(C)(=O)Oc2ccc(OC)cc2)cc1 (stereo not drawn),inactive: -5.7%
23,O=[N+]([O-])c1cc([N+](=O)[O-])c(O)c([N+](=O)[O-])c1.c1ccc(Oc2ccncc2)cc1,inactive: -37.7%
24,COc1ccccc1OP(C)(=O)Nc1ccccc1 (stereo not drawn),inactive: 2.23%
25,CP(=O)(Nc1ccccc1Br)Oc1ccccc1 (stereo not drawn),inactive: -3.88%
26,CP(=S)(Nn1cnnc1)Oc1ccccc1 (stereo not drawn),inactive: 10.6%
27,CCOC(=O)C(CC)C1=NC(C)(C)Cc2ccccc21.O=[N+]([O-])c1cc([N+](=O)[O-])c(O)c([N+](=O)[O-])c1 (stereo not drawn),inactive: -10.1%

row,SMILES,"inhibition (viability loss, TRAIL sensitization)"
1,CC1=C2N=C(C=C3N=C(C(C)=C4[N-][C@@](C)([C@@H]5N=C1[C@](C)(CCC(=O)NC[C@@H](C)OP(=O)([O-])O[C@H]1[C@@H](O)[C@@H](n6cnc7cc(C)c(C)cc76)O[C@@H]1CO)[C@H]5CC(N)=O)[C@@](C)(CC(N)=O)[C@@H]4CCC(N)=O)[C@@](C)(CC(N)=O)[C@@H]3CCC(N)=O)C(C)(C)[C@@H]2CCC(N)=O.[C-]#N.[Co+3],inactive: 3.85%
2,O=[N+]([O-])c1cc([N+](=O)[O-])c(Nc2nnnn2CCO)c([N+](=O)[O-])c1,inactive: 6.54%
3,CCCOc1ccc(NP(C)(=O)Oc2ccc(Cl)cc2)cc1 (stereo not drawn),inactive: -6.43%
4,CP(=O)(Nc1ccc(SC(F)(F)F)cc1)Oc1ccccc1 (stereo not drawn),inactive: 15.7%
5,COc1ccc(-c2ccccn2)cc1.O=[N+]([O-])c1cc([N+](=O)[O-])c(O)c([N+](=O)[O-])c1,inactive: 8.28%
6,COc1ccccc1OP(C)(=O)Nc1c(C)cccc1C (stereo not drawn),inactive: 1.07%
7,CN1CCCCC1COC(=O)C1(O)c2ccccc2CCc2ccccc21 (stereo not drawn),inactive: 7.01%
8,CN(Cc1cccnc1)C(=O)COc1ccc(Cl)c(Cl)c1.O=[N+]([O-])c1cc([N+](=O)[O-])c(O)c([N+](=O)[O-])c1,inactive: 10.5%
9,O=[N+]([O-])c1cc([N+](=O)[O-])c(-n2nnc3ccccc32)c([N+](=O)[O-])c1,inactive: 5.58%
10,Cc1nc2ccc3ccccc3c2s1.O=[N+]([O-])c1cc([N+](=O)[O-])c(O)c([N+](=O)[O-])c1,inactive: 21.5%
11,O=[N+]([O-])c1cc([N+](=O)[O-])c(-c2cnn(-c3ccccc3)c2)c([N+](=O)[O-])c1,inactive: 21.3%
12,Cc1cc(C)cc(OP(C)(=O)Nc2ccc(C)cc2C)c1 (stereo not drawn),inactive: -15%
13,CCOC(=O)c1ccc(NP(C)(=O)Oc2cc(C)cc(C)c2)cc1 (stereo not drawn),inactive: 5.31%
14,COc1ccccc1OP(C)(=O)Nc1cccc(Br)c1 (stereo not drawn),inactive: -5.48%
15,Cc1cc(C)cc(OP(C)(=O)Nc2ccccn2)c1 (stereo not drawn),inactive: -32.3%
16,CP(=O)(Nc1cccc(Br)c1)Oc1ccccc1 (stereo not drawn),inactive: -10.4%
17,Cc1ccc(C)c(NP(C)(=O)Oc2ccccc2)c1 (stereo not drawn),inactive: 0.224%
18,O=C(O)c1cccc(Nc2c([N+](=O)[O-])cc([N+](=O)[O-])cc2[N+](=O)[O-])c1,inactive: 1.06%
19,CC1=NCCc2c1[nH]c1ccccc21.O=[N+]([O-])c1cc([N+](=O)[O-])c(O)c([N+](=O)[O-])c1,inactive: 4.44%
20,COc1ccc(OP(C)(=O)Nc2ccc(SC(F)(F)F)cc2)cc1 (stereo not drawn),inactive: -0.0563%
21,CCOC(=O)c1ccc(NP(C)(=O)Oc2ccc(F)cc2)cc1 (stereo not drawn),inactive: -2.02%
22,CCN(CC)CCCNc1ccccc1[N+](=O)[O-].O=[N+]([O-])c1cc([N+](=O)[O-])c(O)c([N+](=O)[O-])c1,inactive: 0.837%
23,CCCCCOc1ccc(NP(C)(=O)Oc2ccc(Cl)cc2Cl)cc1 (stereo not drawn),inactive: 6.67%
24,O=[N+]([O-])c1cc([N+](=O)[O-])c(OC2CCCCC2O)c([N+](=O)[O-])c1 (stereo not drawn),inactive: 8.55%
25,CP(=O)(Nc1ccccc1)Oc1ccc(F)cc1 (stereo not drawn),inactive: 1.59%
26,CCN(CC)CCCOC(=O)C(O)(c1ccccc1)C1CCCCC1 (stereo not drawn),inactive: 7.89%
